Results from PubChem BioAssay AID434973 (Sanford-Burnham Center for Chemical Genomics, 2010).
The list shows a part of the results, in another mix than the full data. Calls of active or inactive are those of the source.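 The calls were made as follows: active = inhibition above about 50% at the single test dose (limit read from the data); inactive = the rest.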

By UniProt entry, the sequences of proteins in these tests, tags left out. Residues count along the entry.
UniProt Q9BQF6, 706-1050 limits assumed: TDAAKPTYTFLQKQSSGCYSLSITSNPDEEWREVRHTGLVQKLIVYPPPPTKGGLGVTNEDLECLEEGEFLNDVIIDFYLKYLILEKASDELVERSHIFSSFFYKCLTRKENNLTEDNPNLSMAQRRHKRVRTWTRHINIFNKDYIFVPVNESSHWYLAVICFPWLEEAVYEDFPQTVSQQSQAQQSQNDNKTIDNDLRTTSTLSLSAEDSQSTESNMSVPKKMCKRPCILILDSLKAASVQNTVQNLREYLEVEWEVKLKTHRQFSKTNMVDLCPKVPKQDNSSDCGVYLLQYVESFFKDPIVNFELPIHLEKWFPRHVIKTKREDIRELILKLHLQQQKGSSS

Molecular target: Sentrin-specific protease 7 (Homo sapiens) (UniProt Q9BQF6)
Assay: blockers of human SENP7 peptidase activity – biochemical, luminescence, uHTS, primary screen (AID 434973);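 also: plate controls were DMSO with enzyme for no effect and no enzyme buffer wells for full effect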
Conditions: recombinant SENP7, Z-RLRGG-aminoluciferin luminescence, 40 min; at 5 µM; stronger effect = higher value

SMILES	inhibition
CC(C)(C)OC(=O)N1CCC(N(C(=O)c2ccccc2)c2ccc(Cl)cc2)CC1	inactive: 6.04%
N#Cc1ccc(C(=O)NCC2(N3CCCCC3)CCCCC2)cc1	inactive: 10.4%
CCCN1CCC(Nc2cc(OC)cc(OC)c2)CC1	inactive: 8.14%
c1ccc(CN2CCC(Nc3ccccc3)CC2)cc1	inactive: -10.4%
CN(C)C1(CNC(=O)c2cccc(C#N)c2)CCCCC1	inactive: -7.4%
O=C(NCC1(N2CCOCC2)CCCCC1)c1cc(Br)ccc1Cl	inactive: -3.93%
COc1cc(C(=O)NCC2(N3CCOCC3)CCCCC2)cc(OC)c1C	inactive: 3.59%
COc1ccc(C(=O)NCC2(N3CCOCC3)CCCCC2)cc1OC	inactive: 1.38%
N/C(=N\O)c1c(N)no[n+]1[O-]	inactive: -10.2%
CCOC(=O)N1CCC(Nc2ccc(C)cc2)CC1	inactive: 3.82%
O=C(OC1CN2CCC1CC2)C1c2ccccc2C=Cc2ccccc21 (configuration not stated)	inactive: 5.46%
CCc1cc(C(=O)NCC2(N3CCCCC3)CCCCC2)sc1C	inactive: 1.33%
CN1CCC(Nc2ccc(F)c(Cl)c2)CC1	inactive: 11.4%
CCOc1ncccc1C(=O)NCC1(N2CCOCC2)CCCCC1	inactive: 3.54%
CCCOc1ccc(C(=O)NCC2(N(C)C)CCCCC2)cc1	inactive: -1.71%
O=C(O)C1(Nc2ccccc2)CCN(Cc2ccccc2)CC1	inactive: -6.53%
CC(C)(C)OC(=O)N1CCC(Nc2ccccc2)CC1	inactive: 5.34%
CCC(CO)(C(=O)OC1CN2CCC1CC2)c1ccccc1 (configuration not stated)	inactive: 6.93%
COc1cc(OC)cc(C(=O)NCC2(N3CCOCC3)CCCCC2)c1	inactive: -5.25%
COc1cccc(C(=O)N(c2cc(C)cc(C)c2)C2CCN(C(=O)OC(C)(C)C)CC2)c1	inactive: -3.88%
CCCOc1ccc(C)cc1CN(CCCl)CCCl	inactive: 8.48%
CN1CCC(Nc2ccc(Cl)cc2)CC1	inactive: -5.84%
COc1cc(OC)cc(C(=O)NCC2(N3CCCCC3)CCCCC2)c1	inactive: -4.81%

SMILES	inhibition
Fc1ccccc1NC1CCN(Cc2ccccc2)CC1	inactive: -12%
Cc1ccc(C(=O)NCC2(N3CCCCC3)CCCCC2)o1	inactive: -4%
CCN1CCC(Nc2cccc(F)c2)CC1	inactive: -0.183%
CN(C)c1ccc(C(=O)NCC2(N3CCCCC3)CCCCC2)cc1	inactive: -3.18%
O=C(NCC1(N2CCCCC2)CCCCC1)c1ccco1	inactive: -4.9%
CCOc1ccc(C)cc1CN(CCCl)CCCl	inactive: 6.16%
COc1ccc(NC2CCN(CCc3ccccc3)CC2)c(OC)c1	inactive: -4.48%
CCOC(=O)N1CCC(Nc2ccc(F)cc2)CC1	inactive: 9.84%
O=C(NCC1(N2CCCCC2)CCCCC1)c1ccc(F)cc1	inactive: -6.23%
CCCCOc1ccc(C(=O)NCC2(N3CCOCC3)CCCCC2)cc1	inactive: -14%
Cc1ccc(OCC(C)C)c(CN(CCCl)CCCl)c1	inactive: -1.13%
CCOC(=O)N1CCC(Nc2cccc(C)c2)CC1	inactive: 1.66%
O=C(NCC1(N2CCCCC2)CCCCC1)c1cccs1	inactive: 5.04%
O=C(NCC1(N2CCCCC2)CCCCC1)c1ccc(=O)[nH]c1	inactive: -4.83%
CC(C)(C)OC(=O)N1CCC(N(C(=O)c2ccccc2)c2ccc(F)cc2)CC1	inactive: 3.16%
COc1ccc(C(=O)NCC2(N3CCCCC3)CCCCC2)c(OC)c1OC	inactive: -4.52%
COc1ccc(C(=O)NCC2(N3CCCCC3)CCCCC2)cc1	inactive: 1.86%
CSc1ccccc1C(=O)NCC1(N2CCCCC2)CCCCC1	inactive: -7.33%
O=C(NCC1(N2CCOCC2)CCCCC1)c1cc2ccccc2o1	inactive: 7.04%
Cc1cc(C)cc(N(C(=O)c2ccccc2)C2CCN(C(=O)OC(C)(C)C)CC2)c1	inactive: 5.7%
O=C(NCC1(N2CCCCC2)CCCCC1)c1ccc(Cl)nc1	inactive: -1.07%
CCOC(=O)N1CCC(Nc2ccc(OC)cc2)CC1	inactive: -8.03%
COc1ccc(Cl)cc1C(=O)NCC1(N2CCOCC2)CCCCC1	inactive: 7.04%

SMILES	inhibition
O=C(OC1CN2CCC1CC2)C1c2ccccc2Oc2ccccc21 (configuration not stated)	inactive: 2.5%
N#CC1(Nc2ccccc2)CCN(Cc2ccccc2)CC1	inactive: 2.67%
O=C(NCC1(N2CCCCC2)CCCCC1)c1ccc(Cl)s1	inactive: 8.02%
CN(C)c1cccc(C(=O)NCC2(N3CCCCC3)CCCCC2)c1	inactive: 6.65%
COc1ccc(CN(CCCl)CCCl)cc1Cl	inactive: 3.45%
CC(C)c1ccc(NC2CCN(C(=O)OC(C)(C)C)CC2)cc1	inactive: -3.36%
O=C(NCC1(N2CCOCC2)CCCCC1)c1cc(F)c(F)cc1Cl	inactive: -6.57%
COc1cc(OC)c(C(=O)NCC2(N(C)C)CCCCC2)cc1OC	inactive: -2.76%
O=C(NCC1(N2CCCCC2)CCCCC1)c1cncc(Br)c1	inactive: 2.48%
CN1CCC(Nc2cccc(F)c2)CC1	inactive: -2.5%
O=C(NCC1(N2CCCCC2)CCCCC1)c1ccc(OC(F)F)cc1	inactive: -1.44%
CSc1ccc(C(=O)NCC2(N3CCOCC3)CCCCC2)cc1	inactive: 5.53%
O=C(NCC1(N2CCCCC2)CCCCC1)c1cccc([N+](=O)[O-])c1	inactive: 4.43%
N#CC1(Nc2ccccc2)CCN(CCc2ccccc2)CC1	inactive: 1.14%
CCN1CCC(Nc2ccc(Cl)cc2)CC1	inactive: 1.31%
O=C(NCC1(N2CCCCC2)CCCCC1)c1cccc(C(F)(F)F)c1	inactive: 4.64%
CN1CCN(CCOC(=O)C(O)(c2ccccc2)c2ccccc2)CC1	inactive: -2.12%
CC(C)c1ccc(C(=O)NCC2(N3CCOCC3)CCCCC2)cc1	inactive: 1.02%
COc1ccc(NC2CCN(C(=O)OC(C)(C)C)CC2)cc1	inactive: 12.3%
COc1cc(C(=O)NCC2(N3CCCCC3)CCCCC2)ccc1OC(F)F	inactive: 5.95%
O=C(NCC1(N2CCOCC2)CCCCC1)c1cc(=O)[nH]c2ccccc12	inactive: -9.29%
